Results: patent publication US12600796B2, “Constructs for chimeric antigen receptors” (Carisma Therapeutics Inc., priority 2020, dated 2026)

How the values were obtained:
[1] = tested on: Human macrophages; test: Viability, CAR expression and M1/M2 markers of HER2 CAR mRNA-electroporated macrophages treated with interferons; format: cell-based
Procedure: (§1) Human macrophages were electroporated with HER2 CAR mRNA comprising m6AGCap1 and PsU modifications. Cells were cultured with cytokines that induce an M1 phenotype such as IFN-alpha, IFN-beta, IFN-gamma, IFN-gamma plus lipopolysaccharide (LPS), TNF-alpha, IL-6 or a STING ligand (STING-L) for up to 48 hours and then cytokines were washed off and fresh media was added. CAR expression and M1 marker expression were measured on days 2 and 7 after transfection. Fluorescent labeled HER2+ breast cancer cells (CRL2351) were co-cultured with HER2 CAR macrophages two days after the macrophages were transfected. Cancer cell growth was monitored via its fluorescence on an Incucyte® live imaging microscope every four hours. The Effector (CAR macrophage) to Target (cancer cell) ratio was 5:1.
(§2) Five different mRNA modifications were also tested to determine if interferon treatment differentially affected macrophages transfected with mRNA comprising different modifications. Human macrophages were electroporated with HER2 CAR mRNA comprising different mRNA modifications. CAR expression and M1 markers were detected by Flow Cytometry (Attune) on day four after electroporation. Day 4 CAR macrophage cells were then co-cultured with a Nuc-Light labeled, HER2+ breast cancer cell line (CRL2351) at an Effector (CAR macrophage) to Target (cancer cell) ratio of 5:1. Cancer cell growth was monitored via its fluorescence on an Incucyte® live imaging microscope every four hours.
To further evaluate the impact of IFN-β on CAR persistence, human macrophages electroporated with m6AGCap1/PsU mRNA encoding a HER2 CAR were evaluated on day 2 and day 7.
In order to validate the effect of IFN-β treatment on improved CAR expression, and to optimize the IFN-β concentration, macrophages transfected with M6AGCap1/PsU modified mRNA were treated with 0, 3, 10, 30, or 100 ng/mL IFN-β for 4 hours and the viability, CAR percentage, and CAR MFI were evaluated on day 4 and day 7 post electroporation.
Given that macrophage phenotype is considered plastic, and immunosuppressive cytokines such as IL-10 are known to induce an M2 phenotype, the impact of IL-10 treatment on IFN-β treated or untreated HER2 CAR mRNA transfected macrophages was evaluated.
Additional studies were performed to determine if treatment with interferons could further improve CAR mRNA persistence in macrophages and if CAR macrophage functionality could be extended. Human macrophages were electroporated with 300 nM CAR mRNA comprising m6AGCap1 and PsU modifications. Cells were cultured with 20 ng/mL IFNs for 24 hours and then the cells were washed to remove cytokines. CAR expression was detected by Flow Cytometry (Attune) on day 2 after transfection. Cells were then co-cultured with a Nuc-Light labeled, HER2+ breast cancer cell line (CRL2351) at the Effector to Target ratio of 3:1. Cancer cell growth was monitored via its fluorescence on an Incucyte® live imaging microscope. CAR expression and M1 markers in macrophages were detected by Flow Cytometry (Attune) on day 7 after transfection.

[2] = tested on: HER2+ breast cancer cells (CRL2351); test: Cytokine secretion of interferon-treated HER2 CAR macrophages co-cultured with cancer cells (MSD); format: cell-based, human; conditions: E:T 3:1, supernatant at 48 hours; FIG. 126
Procedure: To evaluate whether interferon treatment of macrophages improved other anti-tumor functions, the cytokine secretion of interferon treated or untreated mRNA transfected HER2 CAR macrophages after co-culture with HER2+ breast cancer cells was evaluated. Human macrophages were electroporated with 150 nM HER2 CAR mRNA comprising m6AGCap1 and PsU modifications. HER2+ breast cancer cells (CRL2351) were co-cultured with CAR macrophages after the macrophages were transfected with the CAR mRNA at an Effector (CAR macrophage) to Target (cancer cell) ratio of 3:1. Supernatant was collected 48 hours after the cancer cells and macrophages were co-cultured and cytokine levels were measured using a Meso Scale Discovery (MSD) instrument.

[3] = tested on: HER2+ breast cancer cell line (CRL2351); test: Cancer cell killing by HER2 CAR mRNA macrophages treated with interferons (Incucyte); format: cell-based, human
Procedure: as §1, §2
To evaluate the anti-tumor function of macrophages transfected with mRNA encoding a HER2 CAR with or without priming with IFN-β, untransduced (UTD) or CAR macrophages were primed with 0, 3, 10, 30, or 100 ng/mL IFN-β for 4 hours or 20 hours. These effector cells were then co-cultured with the HER2+ breast cancer cell line CRL2351-GFP at an effector to target ratio of 3:1 or 1.5:1 and anti-tumor activity was measured based on GFP expression using an Incucyte® live imaging microscope. […] To evaluate whether the improved mRNA-transfected CAR macrophage anti-tumor effect was universal to all interferons or only interferon beta, macrophages electroporated with M6AGCap1/PsU mRNA were treated with IFN-alpha, beta, or gamma and evaluated for their cancer cell killing ability.
Additional studies were performed to determine if treatment with interferons could further improve CAR mRNA persistence in macrophages and if CAR macrophage functionality could be extended. […] CAR expression was detected by Flow Cytometry (Attune) on day 2 after transfection. […] Cancer cell growth was monitored via its fluorescence on an Incucyte® live imaging microscope. CAR expression and M1 markers in macrophages were detected by Flow Cytometry (Attune) on day 7 after transfection.

B1: IFN-β: interferon cytokine that induces an M1 phenotype (protein, UniProt P01574 22-187, looked up)
Interferon beta: MSYNLLGFLQRSSNFQCQKLLWQLNGRLEYCLKDRMNFDIPEEIKQLQQFQKEDAALTIYEMLQNIFAIFRQDSSSTGWNETIVENLLANVYHQINHLKTVLEEKLEKEDFTRGKLMSSLHLKRYYGRILHYLKAKEYSHCAWTIVRVEILRNFYFINRLTGYLRN
- induction of M1 markers CD80, CD86, and HLA-DR ([1]; 0-100 ng/mL, FIG. 123B): dose-dependent
- M2 marker CD163 after IL-10 ([1]; 48 hours and 7 days post-treatment with IL-10): did not express the M2 marker CD163
- response of treated CAR macrophages to IL-10 ([1]; 48 hours and 7 days post-treatment with IL-10, FIGS. 124A-B): resisted the effects of IL-10
- M1 phenotype (based on CD86 expression) ([1]; FIG. 121E): induction of an M1 phenotype
- persistence of M1 phenotype post treatment ([1]; FIG. 121E): at least 7 days
- strength of M1 phenotype among interferons ([1]; FIG. 121E): strongest M1 phenotype of the interferons evaluated
- M2 markers (based on CD163 expression) ([1]; FIG. 121F): reduction of M2 markers
- secretion of IL-6, IL-8 and TNFα [2]: increased secretion of the cytokines IL-6, IL-8 and TNFα
- level of cancer killing among treated CAR macrophages ([3]; 7 days post-electroporation, FIG. 128B): highest level of cancer killing
- anti-tumor activity with mRNAs comprising different modifications ([3]; FIG. 125B): improved anti-tumor activity for all CAR macrophages except those transfected with 5moU mRNA
- cancer cell killing compared among interferons ([3]; M6AGCap1/PsU mRNA, FIG. 125C): best cancer cell killing, with a greater effect than IFN-α or IFN-γ
- ability of CAR macrophages to kill cancer cells ([3]; primed 0-100 ng/mL for 4 or 20 hours, E:T 3:1 or 1.5:1, FIG. 125A): improved ability for CAR macrophages to kill cancer cells
